# Source: US8680102B2, “Pyrrole derivatives, their preparation and their therapeutic application” (Sanofi, priority 2008, dated 2014)
# By UniProt entry, the sequences of proteins in these tests, tags left out.
# UniProt P47746, whole entry: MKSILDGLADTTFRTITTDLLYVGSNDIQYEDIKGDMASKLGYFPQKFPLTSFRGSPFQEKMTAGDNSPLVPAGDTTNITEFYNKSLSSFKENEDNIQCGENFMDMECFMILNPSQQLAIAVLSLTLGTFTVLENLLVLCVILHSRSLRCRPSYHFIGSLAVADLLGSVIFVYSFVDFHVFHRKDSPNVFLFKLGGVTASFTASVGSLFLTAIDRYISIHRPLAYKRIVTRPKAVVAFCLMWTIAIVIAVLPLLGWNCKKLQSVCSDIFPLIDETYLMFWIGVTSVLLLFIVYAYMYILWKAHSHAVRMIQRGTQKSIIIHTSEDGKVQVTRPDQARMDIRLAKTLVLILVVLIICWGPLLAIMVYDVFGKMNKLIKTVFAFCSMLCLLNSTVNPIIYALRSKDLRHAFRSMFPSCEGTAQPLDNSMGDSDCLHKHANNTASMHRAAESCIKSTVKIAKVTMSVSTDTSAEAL
# Columns and labels:
# [1] = target: T1, CB1 receptors present at the periphery (Mus musculus, UniProt P47746); experiment: blocking of the inhibitory effect of CP55940 on the gastrointestinal transit; format: in vivo; settings: po route at 10 mg/kg, mice
# T1 construct: from tissue; host or cells: whole mouse, in vivo (peripheral / gastrointestinal CB1)
# Description: A percentage reversion of the effect of CP55940 greater than 50% at 10 mg/kg indicates a significant antagonist power at the level of the CB1 receptors present at the periphery.
# [2] = target: CB1 receptors present in the brain (Mus musculus, UniProt P47746); experiment: Measurement (3): blocking of the hypothermic effect induced by CP55940; format: in vivo; design: from tissue; host or cells: whole animal, in vivo (brain CB1)
smiles,measurement,setting,value
"Cc1c(C(=O)NN2CCCCC2)nn(-c2ccc(Cl)cc2Cl)c1-c1ccc(Cl)cc1 [rimonabant, reference compound]",% reversion of the effect of CP55940 on the GIT,[1],100%
same,% reversion of the hypothermic effect of CP55940,[2]; iv route at 10 mg/kg,100% [effective dose 50
same,ED50,"[2]; iv route, read-out: effective dose 50 (ED50), reversion of the hypothermic effect of CP55940",0.3 mg/kg
